Sequences of proteins named here, by UniProt entry; tags and fusion partners are left off. A change or cut given only in a name is not applied to a line headed by its entry.
UniProt P42338: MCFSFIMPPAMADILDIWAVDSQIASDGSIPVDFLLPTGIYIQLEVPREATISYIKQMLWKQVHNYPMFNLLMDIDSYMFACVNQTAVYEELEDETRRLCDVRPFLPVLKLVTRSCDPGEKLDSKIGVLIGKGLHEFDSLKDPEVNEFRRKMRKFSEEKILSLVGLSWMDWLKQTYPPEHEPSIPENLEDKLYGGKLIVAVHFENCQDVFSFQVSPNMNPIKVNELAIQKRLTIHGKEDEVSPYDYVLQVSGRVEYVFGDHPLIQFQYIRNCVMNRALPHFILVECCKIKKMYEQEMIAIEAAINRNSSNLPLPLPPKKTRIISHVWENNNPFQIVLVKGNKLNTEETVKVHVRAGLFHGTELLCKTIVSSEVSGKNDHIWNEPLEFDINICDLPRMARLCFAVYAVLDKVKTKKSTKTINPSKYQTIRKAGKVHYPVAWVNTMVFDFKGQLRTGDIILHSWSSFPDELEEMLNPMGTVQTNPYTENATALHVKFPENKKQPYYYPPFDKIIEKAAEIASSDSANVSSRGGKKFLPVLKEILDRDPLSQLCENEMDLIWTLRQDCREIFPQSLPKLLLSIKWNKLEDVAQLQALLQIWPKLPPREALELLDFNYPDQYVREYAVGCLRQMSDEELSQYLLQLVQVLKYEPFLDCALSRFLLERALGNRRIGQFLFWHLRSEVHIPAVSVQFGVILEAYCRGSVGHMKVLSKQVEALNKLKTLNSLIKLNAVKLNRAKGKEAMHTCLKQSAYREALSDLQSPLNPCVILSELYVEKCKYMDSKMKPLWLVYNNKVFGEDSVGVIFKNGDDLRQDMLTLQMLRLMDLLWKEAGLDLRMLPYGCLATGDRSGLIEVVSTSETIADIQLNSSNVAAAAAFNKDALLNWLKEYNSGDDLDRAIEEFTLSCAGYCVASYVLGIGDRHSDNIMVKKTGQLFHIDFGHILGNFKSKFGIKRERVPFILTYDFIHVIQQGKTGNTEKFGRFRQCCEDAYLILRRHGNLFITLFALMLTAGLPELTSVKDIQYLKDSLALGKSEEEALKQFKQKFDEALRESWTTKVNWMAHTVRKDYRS

In paper PMC3174055 (Biochemical Journal, 2011):

Target: p110β (Homo sapiens, UniProt P42338)
Test: PI3K
Type: biochemical
Details: read-out: IC50 against p110β; HTRF assay

IC50: 0.012 µM
SMILES: Cc1cc(C(C)Nc2ccccc2)c2nc(N3CCOCC3)cc(=O)n2c1 (stereo not shown) [TGX-221]
